Patent US8962630B2, “Pyrrolopyrimidine compounds and their uses” (Novartis AG, priority 2008, dated 2015)

Sequences of proteins named here, by UniProt entry; tags and fusion partners are left off.
UniProt P06493, whole entry, species assumed: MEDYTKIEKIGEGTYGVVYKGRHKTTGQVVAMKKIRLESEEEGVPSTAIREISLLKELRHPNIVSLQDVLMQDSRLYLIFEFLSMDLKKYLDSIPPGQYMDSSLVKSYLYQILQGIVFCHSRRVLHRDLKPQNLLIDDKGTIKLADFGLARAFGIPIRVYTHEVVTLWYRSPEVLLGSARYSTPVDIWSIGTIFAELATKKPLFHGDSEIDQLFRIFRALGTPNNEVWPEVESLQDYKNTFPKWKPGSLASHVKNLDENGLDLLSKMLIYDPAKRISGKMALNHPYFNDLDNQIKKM

Experiments:
CDK2/cyclin A = CDK2/cyclin A (Homo sapiens (Human), UniProt P24941); assay: CDK2/Cyclin A enzymatic activity assay (IMAP-FP); format: biochemical; details: Table 2
CDK1/cyclin B = CDK1/cyclin B (Homo sapiens (Human), UniProt P06493); assay: CDK1/Cyclin B enzymatic activity assay (IMAP-FP); format: biochemical; details: Table 2; 20 μM ATP
From the text: A 384-well microtiter IMAP-FPT™ (Molecular Devices Trade Mark Technology) endpoint assay was used for CDK1/cyclin B kinase activity measurements. The same assay was used for IC50 determination of small molecule inhibitors.

## CN(C)C(=O)c1cc2cnc(Nc3ccc(CN4CC5CCC(C4)N5)cn3)nc2n1C1CCCC1 [Example 73, 7-Cyclopentyl-2-[5-(3,8-diaza-bicyclo[3.2.1]oct-3-ylmethyl)-pyridin-2-ylamino]-7H-pyrrolo[2,3-d]pyrimidine-6-carboxylic acid dimethylamide]
CDK2/cyclin A
  IC50: > 15 µM
CDK1/cyclin B
  IC50: > 15 µM
